{
  "source": "patent US20250009714A1",
  "about": "“SELECTION AND TREATMENT OF SUBJECTS HAVING A CIRCULATING MYELOID CELL INFLAMMATORY PHENOTYPE” (Tranquis Therapeutics, Inc., priority 2021, published 2025)",
  "origin": "cited, not measured here",
  "tested_on": "SOD1-G93A mice",
  "details": "SOD1 mouse model; cited from earlier work",
  "data": [
    {"smiles": "Nc1nc2ccc(OC(F)(F)F)cc2s1", "note": "[riluzole]", "values": [
      {"measurement": "survival benefit in the SOD1 model (approved ALS treatments)", "result": "failed to display survival benefits"}
    ]}
  ]
}
